{"source": "patent US10875895B2", "about": "“Antibacterial cell-penetrating peptides” (Purdue Research Foundation, priority 2018, dated 2020)", "tested_on": "S. aureus MRSA US300", "settings": "2x or 4x MIC, CAMHB media"}
{"smiles": "CN[C@H](CC(C)C)C(=O)N[C@H]1C(=O)N[C@@H](CC(N)=O)C(=O)N[C@H]2C(=O)N[C@H]3C(=O)N[C@H](C(=O)N[C@H](C(=O)O)c4cc(O)cc(O)c4-c4cc3ccc4O)[C@H](O)c3ccc(c(Cl)c3)Oc3cc2cc(c3O[C@@H]2O[C@H](CO)[C@@H](O)[C@H](O)[C@H]2O[C@H]2C[C@](C)(N)[C@H](O)[C@H](C)O2)Oc2ccc(cc2Cl)[C@H]1O", "note": "[Vancomycin, vancomycin]", "values": [{"measurement": "time for a similar (greater than 5 log) reduction in bacteria levels", "result": 24, "unit": "hours"}]}
{"smiles": "CC(=O)NC[C@H]1CN(c2ccc(N3CCOCC3)c(F)c2)C(=O)O1", "note": "[linezolid]", "values": [{"measurement": "reduction in bacteria levels", "setting": "in 24 hours", "result": "about a log reduction"}]}
